## Binding of CDR-mutated scFvs to a peptide of the spike HR2 region

Binding partner: SARS-CoV-2 spike HR2 peptide, sequence PDVDLGDISGINAS.

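In library AAYL49, one, two or three CDR residues were substituted; doubles and triples were drawn at random. The scFvs were displayed on barcoded MATa yeast, the peptide on MATalpha yeast. Mating (16 h, 30 °C) was followed by selection of diploids and sequencing of their barcodes. Read counts were normalised to the haploid input and turned into Kd by a linear fit to BCL2-family pairs of known affinity, for each replicate. The assay was run in three technical replicates.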

Parent: Ab-14, a human scFv built as VH, three GGGGS repeats, VL. Only the CDRs of the heavy chain vary.
VH: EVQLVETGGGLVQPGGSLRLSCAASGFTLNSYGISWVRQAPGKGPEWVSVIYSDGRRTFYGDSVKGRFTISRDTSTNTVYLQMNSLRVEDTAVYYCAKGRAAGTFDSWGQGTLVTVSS
VL: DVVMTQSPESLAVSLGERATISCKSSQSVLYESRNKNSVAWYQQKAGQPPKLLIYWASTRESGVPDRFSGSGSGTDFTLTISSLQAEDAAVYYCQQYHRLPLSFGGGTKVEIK

Each variant is given by its three heavy chain CDRs, as the data file delimits them; those of the parent are GFTLNSYGIS, VIYSDGRRTFYGDSVK, GRAAGTFDS. All variants listed here change K65 of the VH, counted from its first residue. Numbers give log10(Kd / nM), so 0 is 1 nM and 3 is 1 µM. Smaller is tighter. The mean shown is taken over the replicates in which the pair was detected. "nd" marks a missing value. The strain was present, yet no cells mated with the target were sequenced in any replicate, which points to weak or no binding. Empty control strains, which show no peptide, gave a signal in 15% of pairings with library AAYL49; the median was 4.06 and 95% of these signals were weaker than 2.83. No background was subtracted. Parent in this assay: reference entry 0.65, copy in this library 4.11 (one replicate of three).

With GFTLNSYGIS / VIYSDGRRTFYGDSVM / GRALKTFDS the result was nd (0 of 3 replicates).
With GFTLNSYGIS / VQYSDGRRTFYGDSVN / GHAAGTFDS the result was nd (0 of 3 replicates).
With GFTLNSYGIS / VIYSDGRRTFIGDSPI / GRAAGTFDS the result was 6.21 (1 of 3 replicates).
With GFTLNSGGIS / VIYSDGRRTMYGDSVD / GRAAGTFDS the result was 3.03 (1 of 3 replicates).
With GFTLNSYGIS / VIYSPGRRTFYGDSVT / GRYAGTFDS the result was nd (0 of 3 replicates).
With GCTLNSYGIS / VIYSDGRRTFYGDSVE / GNAAGTFDS the result was nd (0 of 3 replicates).
With GFTVNSYGIS / VIYSDGRRTFYGDSVA / GRAAGTFDW the result was nd (0 of 3 replicates).
With GFTLNSYVIS / VIYSDGRRTFYGDSVR / GRAAGTFLS the result was nd (0 of 3 replicates).
With CFTLNSYGIS / VIYHDGRRTFYGDSVY / GRAAGTFDS the result was nd (0 of 3 replicates).
With GNTLNSYGIS / VIYSDGRRTFYGDSVI / GRAWGTFDS the result was nd (0 of 3 replicates).
With GFTLNSYGIS / VIYSDGRRTFYGDSVW / GRAAGTFDS the result was 2.58 (3 of 3 replicates).
With GFTLNSYGIS / VIYSDGRRTFYGDSIF / GRAAGTFDS the result was 2.86 (1 of 3 replicates).
With GFTLNSRGIS / VIYGDGRRTFYGDSVC / GRAAGTFDS the result was 3.50 (1 of 3 replicates).
With GFTLNSYGIS / CIYSDGGRTFYGDSVP / GRAAGTFDS the result was 4.40 (2 of 3 replicates).
With GFTLNSYCIS / VIYSDGRRTHYGDSVM / GRAAGTFDS the result was nd (0 of 3 replicates).
With GFTNNSYGIS / VIYSDRRRTFYGDSVL / GRAAGTFDS the result was 5.01 (3 of 3 replicates).
With GFTLNSYGIS / VIYSDGRRTFYGDWVD / GRVAGTFDS the result was 1.53 (3 of 3 replicates).
With GFTLNSYGIS / VIYSDGRRTFYGDSVC / GRCAGSFDS the result was 4.01 (2 of 3 replicates).
With GFTLNDYGCS / VIYSDGRRTFYGDSVV / GRAAGTFDS the result was nd (0 of 3 replicates).
With GITLNSYGIS / VIYSDGRRTFYGDSVD / GRAAGTFDS the result was 1.82 (3 of 3 replicates).
With GFTLNSYGIS / VIYSNGRRTFYGDSVH / GRAAGTPDS the result was 4.08 (1 of 3 replicates).
With GFELNSYGIS / VIYSDGRRTFYCDSVI / GRAAGTFDS the result was 1.02 (3 of 3 replicates).
With GFTLNSYGIS / VIYSDGRRTFYGDSVS / GRAAATNDS the result was 2.78 (3 of 3 replicates).
With NFTLNSYGIS / VIYSDGRRNFYGDSVF / GRAAGTFDS the result was 5.25 (1 of 3 replicates).
With GFTLNSYGIS / VIYSDGRRTFYGDSVE / GRAAGTFDS the result was 0.51 (3 of 3 replicates).
With GFTLNSYGIS / VIFSDGRRTFYGDSVE / GRAATTFDS the result was nd (0 of 3 replicates).
With GFTLNSYGIS / VIYSDGRRTFYGDSVV / GRAYGCFDS the result was 3.93 (2 of 3 replicates).
With GFTVNSYGIS / VIYSDGRRTFYGDSVN / GVAAGTFDS the result was 2.35 (3 of 3 replicates).
With GFTLNSYGIS / WIYSMGRRTFYGDSVS / GRAAGTFDS the result was 3.50 (1 of 3 replicates).
With GFTKNSYGIS / VIYSDGRRTIYGDSVP / GRAAGTFDS the result was 5.52 (2 of 3 replicates).
With GFTLNSYGIS / VIYSDGRRTMYGDSVI / GRCAGTFDS the result was 2.22 (3 of 3 replicates).
With GFTLNSYGIS / VIYSDGRRTFLGDSVL / GRAAGTFDS the result was nd (0 of 3 replicates).
With GFTLNSYGIS / VRYSDGRRTFYGKSVW / GRAAGTFDS the result was nd (0 of 3 replicates).
With GFTLNSYGIS / VIYSDGRATFYGDSVQ / GRAAKTFDS the result was nd (0 of 3 replicates).
With GFTLNSNGIS / VFYSDGRRTFYGDSVY / GRAAGTFDS the result was 4.80 (1 of 3 replicates).
With GFTLNSYGIS / VIYSDGRRTFYFDSVY / GRAAGTFDT the result was nd (0 of 3 replicates).
With GFTLNSYGIS / VIYADGRRTFYGVSVF / GRAAGTFDS the result was 2.51 (1 of 3 replicates).
With GFTLNSYGIS / VIYSDGRRTFYGDSVF / ARVAGTFDS the result was 2.46 (3 of 3 replicates).
With GFTLNSYGIS / VIYSDGSRTFYGDSVN / GRAAGTFDM the result was 1.68 (3 of 3 replicates).
With GFALNSYGIS / VIYSAGRRTFYGDSVF / GRAAGTFDS the result was nd (0 of 3 replicates).
With GFTLNSYGIS / VIYPDGRRTFYGHSVD / GRAAGTFDS the result was 2.20 (3 of 3 replicates).
With GFTLNSYGIS / VDYSDGRRTFYGDSVG / GRAAGTFDT the result was 1.86 (1 of 3 replicates).
With GFTLNSGGIS / VIYSDGRRTFYGDSVR / GRAKGTFDS the result was 3.81 (1 of 3 replicates).
With GFTLNSYGIS / VIYSDGRRTFYVDSVH / GRAAGTSDS the result was 2.45 (3 of 3 replicates).
With GFTPNSYGIS / VIYSDGRRTFYGDSVL / GRAAGAFDS the result was nd (0 of 3 replicates).
With GWTLNSYGLS / VIYSDGRRTFYGDSVL / GRAAGTFDS the result was 4.76 (2 of 3 replicates).
With GFVLNSYGIS / VIYSDGRRTFYGDSVN / GRCAGTFDS the result was 3.51 (3 of 3 replicates).
With GFTLNSYKIS / VIYSDGRRTFPGDSVP / GRAAGTFDS the result was nd (0 of 3 replicates).
With GFTLNSYGIS / VIYSDGRRTFCGDSVR / GSAAGTFDS the result was 2.17 (3 of 3 replicates).

Extract of 8 entries:

GFTLNSYGIS / VIYSDGRRTFYFDSVY / GRAAGTFDT: nd (0 of 3 replicates).
GFTLNSYGIS / CIYSDGGRTFYGDSVP / GRAAGTFDS: 4.40 (2 of 3 replicates).
GFTLNSYGIS / VIYSDGRRTFYGDSVF / ARVAGTFDS: 2.46 (3 of 3 replicates).
GFTVNSYGIS / VIYSDGRRTFYGDSVA / GRAAGTFDW: nd (0 of 3 replicates).
GFTLNSYGIS / VQYSDGRRTFYGDSVN / GHAAGTFDS: nd (0 of 3 replicates).
GNTLNSYGIS / VIYSDGRRTFYGDSVI / GRAWGTFDS: nd (0 of 3 replicates).
GFTLNSYGIS / VRYSDGRRTFYGKSVW / GRAAGTFDS: nd (0 of 3 replicates).
NFTLNSYGIS / VIYSDGRRNFYGDSVF / GRAAGTFDS: 5.25 (1 of 3 replicates).

The measurements come from Engelhart et al. 2022 (doi:10.1038/s41597-022-01779-4) through the FLAb antibody collection.